Values of other authors in patent publication US6403630B1, “Treating cancers associated with overexpression of HER-2/neu” (Cornell Research Foundation, Inc., priority 1999, dated 2002).

Test system: metastatic breast cancer
Settings: cited from earlier work

## HERCEPTIN®: an antibody to HER-2/neu, available from Genentech
  remission time: lengthen
